Results as given in patent US9388151B2, “Methods for producing 5-(halomethyl) furfural” (MICROMIDAS, INC., priority 2012, dated 2016).

Experimental: The amount of solvent and CMF used are detailed in Table 1.
Once the vials were filled and sealed, each vial was held at the temperatures listed in Table 1 above for 20-30 minutes, at which time a sample was taken and analyzed by HPLC.
An aliquot was analyzed by HPLC. The following HPLC protocol was used. The column was an Agilent Technologies RX-Sil silica column; 4.6×100 mm packed with 1.8 micron silica beads. Column temperature was maintained at 50° C. Injection volume was 1.0 microliter. Mobile phase composition was 80% hexane and 20% tetrahydrofuran flowing at 1.0 mL/min.

Cc1ccccc1 [Toluene]
CMF saturation concentration at specified temperature: 316 mg/mL
